Tests used:
C1498 cells = test: Anti-tumor effect after immunization, tumor not expressing WT1; format: in vivo, C57BL/6 mice; conditions: FIG. 2 B
Description: As the tumor model, WT1 gene-introduced C1498 cells (C1498muWT1 cells) were used; as the immunization animal, C57BL/6 mice were used; and as the model cancer antigen, the peptide D^b 126 was used. Thus, C57BL/6 mice were immunized three times weekly by subcutaneous administration, to the back thereof, of the same mixture as in Example 1 of the cancer antigen peptide D^b 126 and lipofectin (LPF) (10 nmol/mouse), or by the intraperitoneal administration of lipopolysaccharide-blast (LPS-blast) (1 ml), and one week after the final immunization C1498muWT1 cells or C1498 cells were intraperitoneally transplanted at an amount of 2×10^6 cells/100 ml. The effect of tumor vaccine was determined daily, and was evaluated by calculating tumor size using the following equation: [Tumor size]=[(long diameter)×(short diameter)^2]^1/3
In each group, the experiment was terminated when tumor size reached 20 mm.
Furthermore, in order to confirm that this anti-tumor effect is WT1-specific, a similar study was carried out using C1498 cells that are not expressing WT1. […] Therefore, it was confirmed that the above anti-tumor effect is WT1-specific.

[1] = target: K^b or D^b of mouse MHC class I; test: Binding affinity of WT1 peptides for mouse MHC class I; conditions: in words only, no numbers given
Description: In accordance with the present invention, as a basis for designing cancer antigen peptides, K^b and D^b of mouse MHC class I as well as A0201 of human HLA were selected, and peptides estimated to have a high affinity with them were selected.
Based on the description in Immunogenetics 41:178-228 (1995), Phe and Try at position 5 as well as Leu and Met etc. at position 8 are expected to be the anchor amino acids for binding to K^b, and Asn at position 5 as well as Met and Ile etc. at position 9 are expected to be the anchor amino acids for binding to D^b.

Sequence: RMFPNAPYL [D^b 126, Arg Met Phe Pro Asn Ala Pro Tyr Leu]
- anti-tumor effect (tumor size) compared with non-immunized group (C1498 cells): no differences seen from the non-immunized group
- binding affinities (Kd values) for K^b or D^b [1]: highest binding affinity

Reference: patent US20060165708A1, “Cancer vaccine containing cancer antigen based on tumor suppressor gene wt1 product and cationic liposomes” (Chugai Seiyaku Kabushiki Kaisha, priority 2001, published 2006)
